# Reference: PubChem BioAssay AID602393 (Broad Institute, 2012)
# Only a part is listed here, and it is no random draw. Activity calls are given as the source filed them. No stated cut-off is given here; in the data, active means activation above about 40%; inconclusive means no clear call, values can overlap the other calls; inactive means below that.
# Experiment: Bmi1 luciferase reporter increase in mESCs, primary screen, esBAF inhibitor project, mouse ES cells, Bmi1 luciferase knock-in, single point (AID 602393);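 further: 0% = median of the plate's neutral control wells and 100% = double that signal; a rise in the Bmi1 reporter signal indicates esBAF inhibition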
# Settings: 24 h, at 12.5 µM, stronger effect = higher value, 100% = twice the neutral-well signal
row,Structure (SMILES),reporter increase
1,COc1ccc(C2=NCC(CBr)S2)cc1 (configuration not stated),inactive: -9.71%
2,CC(=O)N1C2C3N(C(C)=O)C1C1N(C(C)=O)C(C(N1C(C)=O)N3C(C)=O)N2C(C)=O,inactive: 0.476%
3,O=[N+]([O-])c1cccc2n[nH]nc12,inactive: -5.21%
4,CCc1nc2c(n1)c1c(non1O)c1c2no[n+]1[O-],inactive: 0.254%
5,Nc1ccc([As](=O)(O)c2ccc(N)cc2)cc1,inactive: -1.6%
6,CC(C)c1nc(Nc2ccccc2)n(P(=O)(N(C)C)N(C)C)n1,inactive: -4.22%
7,c1cc(-c2nn[nH]n2)ccc1-c1nn[nH]n1,inactive: -2.07%
8,CC1CCN(C(=O)Oc2c(Cl)cc(Cl)c3cccnc23)CC1,inactive: 28.7%
9,O=P1(N(CCCl)CCCl)OCCCS1 (configuration not stated),inactive: -2.23%
10,O=C(Nc1cc([As](=O)(O)O)ccc1O)c1ccccc1,inactive: 1.77%
11,CC(C)(C)C(=O)NC(Sc1ccncn1)C(Cl)(Cl)Cl (configuration not stated),inactive: 5.35%
12,O=[N+]([O-])c1cccc(NC2=NCC(CBr)S2)c1 (configuration not stated),inactive: -1.33%
13,O=C(O)CNc1ccc([As](=O)(O)O)cc1,inactive: -0.107%
14,O=C(O)c1ccccc1[As](=O)(O)O,inactive: -4%
15,CC(=O)Nc1ccc([As](=O)(O)O)cc1,inactive: -2.17%
16,CCCC1OP(N)(=O)OCC1CC (configuration not stated),inactive: -4.26%
17,CN(C)P(=O)(N(C)C)n1c(Nc2ccccc2)nnc1-c1ccccc1,inactive: 15.8%
18,O=P(Nc1nc2ccc(Cl)cc2s1)(c1ccccc1)c1ccccc1,inactive: -0.23%
19,CCOP(=O)(Nc1ccccc1)OCC,inactive: -9.64%
20,CN(C(=O)Cc1ccc(Cl)c(Cl)c1)[C@H]1CCCC[C@@H]1N1CCCC1,inactive: -0.137%
21,Cc1ccc(NP(=O)(Oc2ccccc2F)Oc2ccccc2F)nc1,inactive: -7.38%
22,Nc1cccc2ccc([As](=O)(O)O)cc12,inactive: -5.7%
23,CN(C(=O)Cc1ccc(Cl)c(Cl)c1)[C@H]1CCCC[C@H]1N1CCCC1,inactive: 1.58%
24,Cc1ccc(N/C(=N/P(=O)(N2CCOCC2)N2CCOCC2)N2CCOCC2)cc1,inactive: -7.32%

row,Structure (SMILES),reporter increase
1,Cc1ccc(OP(=O)(Nc2nccs2)Oc2ccc(C)cc2)cc1,inactive: -4.58%
2,Clc1ccc(Cl)c(NC2=NCC(CBr)S2)c1 (configuration not stated),inactive: 3.09%
3,CN1CCCC(OC(=O)C(c2ccccc2)c2ccccc2)C1 (configuration not stated),inactive: -2.32%
4,CC(C)CC(=O)NC(Sc1ccc(Cl)cc1)C(Cl)(Cl)Cl (configuration not stated),inactive: 0.93%
5,Oc1ccccc1CNc1ccccn1,inactive: -2.79%
6,O=P1(Nc2nc3ccc(Cl)cc3s2)COc2ccccc2O1 (configuration not stated),inactive: 22.9%
7,CCc1cc(O)c([N+](=O)[O-])c(C)c1[N+](=O)[O-],inactive: -2.15%
8,CC(=O)c1ccc(N2CC2c2ccncc2)cc1 (configuration not stated),inactive: 4.27%
9,Cc1ccccc1CN(C)C(=O)COC(=O)C(O)(c1ccccc1)c1ccccc1,inactive: 13.1%
10,C[C@@H]1C=CCP(=O)(Oc2ccccc2)O1 (some centres not stated),inactive: 2.5%
11,C[C@H]1OP(=O)(Oc2ccccc2)C[C@@H]2O[C@@H]21 (some centres not stated),inactive: -6.34%
12,CC(=O)Nc1ccc([As](=O)(O)O)c(O)c1,inactive: -5.33%
13,CC(=O)Nc1ccc(Oc2c([N+](=O)[O-])cc([N+](=O)[O-])cc2[N+](=O)[O-])cc1,inactive: 2.1%
14,CCNC(=S)/N=C(\N)N[N+](=O)[O-],inactive: -3.72%
15,O=P1(N(CCCl)CCCl)OCCC2CCCCN21 (configuration not stated),inactive: -1.94%
16,COC(=O)c1cc2c(s1)N=C(c1ccccc1)N(C)P2(=O)N1CCOCC1 (configuration not stated),inactive: -9.87%
17,O=C(OC1CN2CCC1CC2)c1ccccc1 (configuration not stated),inactive: -2.08%
18,CCC(=O)N1C2C3N(C(=O)CC)C1C1N(C(=O)CC)C(C(N1C(=O)CC)N3C(=O)CC)N2C(=O)CC,inactive: -8.14%
19,CC(NC(=O)COC(=O)C(O)(c1ccccc1)c1ccccc1)c1ccccc1 (configuration not stated),inactive: 0.218%
20,Nc1ccc(CCCCOc2ccccc2)cc1,active: 66.5%
21,CN(C)C1(CNC(=O)c2ccc(Cl)c(S(N)(=O)=O)c2)CCCCC1,inactive: 2.6%
22,O=P(Nc1ccccn1)(c1ccc(Br)cc1)c1ccc(Br)cc1,inactive: -1.79%
23,O=P(Nc1nc2ccccc2s1)(c1ccccc1)c1ccccc1,inactive: 10.3%
24,C[C@H]1OP(=O)(Oc2ccccc2)[C@H](O)[C@H](O)[C@H]1N=[N+]=[N-] (some centres not stated),inactive: 0.265%

row,Structure (SMILES),reporter increase
1,O=[N+]([O-])c1ncn(CCn2cnc([N+](=O)[O-])n2)n1,inactive: 2.93%
2,O=[N+]([O-])c1ccc(O)c(/C=N/Nc2ccc([N+](=O)[O-])cc2[N+](=O)[O-])c1,inactive: -51.4%
3,O=[As](O)(c1ccccc1)c1ccc(O)cc1,inactive: 2.41%
4,Nc1ccc([As](=O)(O)c2ccc([N+](=O)[O-])cc2)cc1,inactive: -9.21%
5,O=C(OC1CN2CCC1CC2)c1cccc(Cl)c1 (configuration not stated),inactive: -8.36%
6,O=P(Nc1nccs1)(c1ccccc1)c1ccccc1,inactive: -6.11%
7,c1nnnn1CCn1cnnn1,inactive: 1.47%
8,CN(CCCl)Cc1cc(Cl)c(NC2=NCCN2)c(Cl)c1,inactive: -3.45%
9,CCC1=CC2Cc3nc4ccc(Cl)cc4c(N)c3C(C1)C2 (configuration not stated),inactive: 0.712%
10,O=P1(Nc2ccccn2)COc2ccccc2OC1,inactive: 3.12%
11,CCOP(=O)(NC(=NC(C)c1ccccc1)NC(C)c1ccccc1)OCC (configuration not stated),inactive: -5.47%
12,Clc1n[nH]nc1-c1nn[nH][15n]1,inactive: -7.89%
13,O=P1(N(CCCl)CCCl)NCCC(C(F)(F)F)O1 (configuration not stated),inactive: 1.78%
14,CN(C(=O)Cc1ccc(Cl)c(Cl)c1)[C@@H]1CCCC[C@H]1N1CCCC1,inactive: -2.74%
15,CC(C)/C=N\N=C(\N)N[N+](=O)[O-],inactive: -11%
16,Cc1nn(-c2ccccc2)c2c1P(=O)(N1CCOCC1)N(C)C(c1ccccc1)=N2 (configuration not stated),inactive: 6.17%
17,Cc1ccc(C(=O)OC2CN3CCC2CC3)cc1 (configuration not stated),inactive: -2.95%
18,CC1CCC(C(C)C)C(OP(=O)(Nc2ccccn2)c2ccccc2)C1 (configuration not stated),inactive: -8.03%
19,O=C(/C=C/c1ccccc1)OC1CN2CCC1CC2 (configuration not stated),inactive: -7.3%
20,CCCC1OP(=O)(Nc2ccccc2)OCC1CC (configuration not stated),inactive: -5.42%
21,O=P1(Nc2ncccn2)COc2ccccc2OC1,inactive: 0.516%
22,Cc1ccc(S(=O)(=O)N(CCCN)CCCc2c(C)nc(N)[nH]c2=O)cc1,inactive: -2.16%
23,NS(=O)(=O)c1cccc(NC(=O)COC(=O)C(O)(c2ccccc2)c2ccccc2)c1,inactive: 6.39%
24,O=P1(Nc2ccc(Br)cn2)COc2ccccc2OC1,inactive: -2.35%

row,Structure (SMILES),reporter increase
1,O=[As](O)(c1cccs1)c1cccs1,inactive: -2.8%
2,CS(=O)(=O)c1cc([N+](=O)[O-])c2no[n+]([O-])c2c1,inactive: -5.33%
3,CCOP1(=S)c2c(C)nn(CCC#N)c2N=C(c2ccccc2F)N1C (configuration not stated),inactive: 12.9%
4,O=P(Nc1nccs1)(c1ccccc1)c1nc2ccccc2s1 (configuration not stated),inactive: 15.5%
5,O=C(O)COc1ccc([As](=O)(O)O)cc1[N+](=O)[O-],inactive: -2.92%
6,Nc1ccccc1[As](=O)(O)c1ccccc1,inactive: -11.3%
7,NC(=O)Nc1ccc([As](=O)(O)O)cc1,inactive: -2.01%
8,O=[N+]([O-])c1ccc2c(c1)nnn2O,inactive: -0.424%
9,CN(C(=O)Cc1ccc(Cl)c(Cl)c1)[C@H]1CC[C@@]2(CCCO2)C[C@@H]1N1CCCC1,inactive: 1.36%
10,N#CCCN(C(=O)COC(=O)C(O)(c1ccccc1)c1ccccc1)c1ccc(F)cc1,inactive: 3.5%
11,CCOP1(=S)c2c(C)nn(CCC#N)c2N=C(c2ccc(F)cc2)N1C (configuration not stated),inactive: -4.48%
12,CN(C(=O)Cc1ccccc1)[C@@H]1CC[C@]2(CCCO2)C[C@H]1N1CCCC1,inactive: 1.88%
13,CS(=O)(=O)c1ccc(Cl)c(NC(=O)COC(=O)C(O)(c2ccccc2)c2ccccc2)c1,inactive: 2.66%
14,O=[As](O)(c1cccc(O)c1)c1cccc(O)c1,inactive: -8.05%
15,Cc1cccc(OCC(=O)OC2CN3CCC2CC3)c1 (configuration not stated),inactive: -1.94%
16,CCCOP(=S)(Nc1nc(N)cc(=O)[nH]1)OCCC,inactive: 0.851%
17,Cc1ccc(NCCc2c([N+](=O)[O-])cc([N+](=O)[O-])cc2[N+](=O)[O-])cc1,inactive: -7.08%
18,Nc1cccc2c([As](=O)(O)O)cccc12,inactive: 1.43%
19,O=C(OC1CN2CCC1CC2)C12CC3CC(CC(C3)C1)C2 (configuration not stated),inactive: -2.23%
20,Cc1cc(=O)[nH]c(N[N+](=O)[O-])n1,inactive: -3.19%
21,COc1cc(I)ccc1[As](=O)(O)O,inactive: -7.54%
22,O=P1(N(CCCl)CCCl)Nc2ccccc2N1,active: 45.7%
23,COc1ccc(N/C(=N/P(=O)(N2CCOCC2)N2CCOCC2)N2CCOCC2)cc1,inactive: -6.06%
24,O=[N+]([O-])c1cc(Oc2ccc([N+](=O)[O-])cc2C(F)(F)F)cc([N+](=O)[O-])c1,inactive: 6.61%

row,Structure (SMILES),reporter increase
1,C[As](=O)(O)c1cccc(C(=O)O)c1,inactive: -3.18%
2,COc1cc(C(=O)NCC2(N3CCOCC3)CCCCC2)ccc1OCC(C)C,inactive: 1.33%
3,O=[N+]([O-])c1ccc(-c2cc([N+](=O)[O-])c(O)c([N+](=O)[O-])c2)cc1,inactive: -0.213%
4,Cc1ccc(OP(=O)(Nc2ccc([N+](=O)[O-])cn2)Oc2ccc(C)cc2)cc1,inactive: 0.412%
5,CC(C)c1ccc(OP(=O)(Nc2ccccn2)Oc2ccccc2F)cc1 (configuration not stated),inactive: -12.7%
6,ClCCSc1nnc(-c2cccnc2)o1,inactive: -2.58%
7,CCN(CC)C(=S)SC(NC=O)C(Cl)(Cl)Cl (configuration not stated),inactive: -13.4%
8,O=C(OC1CN2CCC1CC2)c1cccc2[nH]cnc12 (configuration not stated),inactive: 1.02%
9,CC1CCNP(=O)(N(CCCl)CCCl)O1 (configuration not stated),inactive: -6.05%
10,O=C(O)C(O)c1ccc(N(CCCl)CCCl)cc1 (configuration not stated),inactive: -9.15%
11,CCOC(=O)Nc1ccc([As](=O)(O)O)c(O)c1,inactive: -3.47%
12,CCCCOc1ccc(C(=O)NCC2(N3CCCCC3)CCCCC2)cc1OC,inactive: -1.04%
13,COP(=O)(OC)N1CC1c1ccccc1 (configuration not stated),inactive: -1.92%
14,CCOC(=O)Nc1cccc([As](=O)(O)O)c1,inactive: -3.6%
15,O=[N+]([O-])c1ccc(Nc2ccc(Oc3ccc([N+](=O)[O-])cc3[N+](=O)[O-])cc2)c([N+](=O)[O-])c1,inactive: -11.7%
16,COP1(=S)c2c(C)nn(CCC#N)c2N=C(c2ccc(F)cc2)N1C (configuration not stated),inactive: -4.39%
17,O=C(COc1ccccc1)OC1CN2CCC1CC2 (configuration not stated),inactive: -9.11%
18,O=C(Nc1ccncc1[N+](=O)[O-])c1ccc([N+](=O)[O-])cc1[N+](=O)[O-],inactive: -13.2%
19,O=C(O)C(=O)c1ccc(N(CCCl)CCCl)cc1,inactive: -16.9%
20,O=C(OC1CN2CCC1CC2)c1cccc([N+](=O)[O-])c1 (configuration not stated),inactive: -8.39%
21,CSc1ccc(Nc2c([N+](=O)[O-])cc([N+](=O)[O-])cc2[N+](=O)[O-])cc1,inactive: 3.54%
